Data published in ChEMBL document CHEMBL5252528, “Transient Receptor Potential Melastatin 8 Channel (TRPM8) Modulation: Cool Entryway for Treating Pain and Cancer” (J Med Chem, 2016).

Amino acid sequences for entries named in this document (tags omitted).
UniProt Q7Z2W7, whole entry: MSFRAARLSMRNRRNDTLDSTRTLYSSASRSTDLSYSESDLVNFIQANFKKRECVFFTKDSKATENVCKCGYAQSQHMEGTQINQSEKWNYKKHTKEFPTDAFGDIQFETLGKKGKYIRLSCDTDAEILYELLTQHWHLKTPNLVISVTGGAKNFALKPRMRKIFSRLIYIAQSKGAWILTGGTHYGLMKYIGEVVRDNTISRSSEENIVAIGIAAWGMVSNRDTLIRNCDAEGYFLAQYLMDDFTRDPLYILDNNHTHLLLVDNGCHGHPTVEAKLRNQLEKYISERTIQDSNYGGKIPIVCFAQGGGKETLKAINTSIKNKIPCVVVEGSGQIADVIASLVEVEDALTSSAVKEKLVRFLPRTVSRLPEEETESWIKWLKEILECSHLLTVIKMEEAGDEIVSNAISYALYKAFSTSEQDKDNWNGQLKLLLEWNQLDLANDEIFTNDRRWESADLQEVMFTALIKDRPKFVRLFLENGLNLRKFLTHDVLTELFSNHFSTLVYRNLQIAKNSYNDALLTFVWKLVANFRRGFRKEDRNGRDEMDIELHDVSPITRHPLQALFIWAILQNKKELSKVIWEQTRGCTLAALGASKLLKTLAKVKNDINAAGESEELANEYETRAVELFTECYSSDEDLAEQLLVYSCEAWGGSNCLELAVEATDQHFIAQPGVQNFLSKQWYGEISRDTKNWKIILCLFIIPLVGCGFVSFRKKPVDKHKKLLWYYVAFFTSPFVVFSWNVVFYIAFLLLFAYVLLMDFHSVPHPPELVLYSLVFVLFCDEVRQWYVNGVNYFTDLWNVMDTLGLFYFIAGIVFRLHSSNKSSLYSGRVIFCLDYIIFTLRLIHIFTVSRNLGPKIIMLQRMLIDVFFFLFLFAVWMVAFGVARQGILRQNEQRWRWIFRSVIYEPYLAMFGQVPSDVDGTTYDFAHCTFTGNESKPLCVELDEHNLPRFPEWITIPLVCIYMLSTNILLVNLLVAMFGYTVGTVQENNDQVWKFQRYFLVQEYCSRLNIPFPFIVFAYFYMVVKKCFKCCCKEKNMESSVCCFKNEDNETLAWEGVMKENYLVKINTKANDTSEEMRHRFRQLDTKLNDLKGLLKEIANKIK

Molecular target: Transient receptor potential cation channel subfamily M member 8 (Homo sapiens, UniProt Q7Z2W7)
Assay: Antagonist activity at cold activated human TRPM8 expressed in HEK293 cells
Assay type: cell-based

## CCn1nnc(-c2sc(-c3cccc(F)c3)nc2O)n1
  IC50: 10 nM
